Results as given in patent US20190292167A1, “HETEROAROMATIC COMPOUNDS USEFUL FOR THE TREATMENT OF PROLIFERATIVE DISEASES” (Syros Pharmaceuticals, Inc., priority 2013, published 2019).

Protein sequences, listed by entry. Tags and fused reporters are not part of them.
UniProt P50613, whole entry: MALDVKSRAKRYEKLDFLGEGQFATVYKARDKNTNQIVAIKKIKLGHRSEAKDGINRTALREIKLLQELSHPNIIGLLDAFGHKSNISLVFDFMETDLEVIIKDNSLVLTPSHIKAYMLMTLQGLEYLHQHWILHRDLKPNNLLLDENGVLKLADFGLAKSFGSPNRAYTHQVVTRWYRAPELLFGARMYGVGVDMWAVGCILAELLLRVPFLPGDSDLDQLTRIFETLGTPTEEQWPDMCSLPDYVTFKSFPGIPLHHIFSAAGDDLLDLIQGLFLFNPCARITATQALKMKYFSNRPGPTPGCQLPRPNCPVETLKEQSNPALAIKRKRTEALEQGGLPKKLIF
UniProt P51946, whole entry partner: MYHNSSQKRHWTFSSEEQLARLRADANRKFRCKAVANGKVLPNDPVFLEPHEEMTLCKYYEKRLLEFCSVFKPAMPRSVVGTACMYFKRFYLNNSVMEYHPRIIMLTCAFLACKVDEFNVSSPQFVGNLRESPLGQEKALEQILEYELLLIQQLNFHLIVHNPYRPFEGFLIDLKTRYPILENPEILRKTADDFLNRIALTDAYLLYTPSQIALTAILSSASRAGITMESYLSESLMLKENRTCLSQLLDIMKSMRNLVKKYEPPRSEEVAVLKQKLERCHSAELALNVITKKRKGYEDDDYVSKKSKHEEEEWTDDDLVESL
UniProt P51948, whole entry partner: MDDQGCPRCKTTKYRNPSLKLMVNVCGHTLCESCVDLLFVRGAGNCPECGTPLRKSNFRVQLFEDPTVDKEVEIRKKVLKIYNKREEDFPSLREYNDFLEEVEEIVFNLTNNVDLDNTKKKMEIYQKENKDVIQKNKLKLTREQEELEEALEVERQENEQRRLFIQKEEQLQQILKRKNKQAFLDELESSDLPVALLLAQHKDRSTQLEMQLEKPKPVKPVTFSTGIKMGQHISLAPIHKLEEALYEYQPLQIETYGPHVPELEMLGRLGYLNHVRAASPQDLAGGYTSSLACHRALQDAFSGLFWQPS

Tests used:
[1] = biological target: CDK7 (Homo sapiens, UniProt P50613); assay: Adapta kinase assay (Life Technologies) against CDK7, co-factors cyclin H and MNAT1; conditions: read-out: CDK7 Inhibition
[2] = tested on: Jurkat; assay: Inhibition of cell proliferation, CellTiter-Glo, 72 hour; assay type: cell-based; conditions: read-out: Inhibition of Proliferation of Jurkat Cells, Blood cancer cell line
Procedure: The following cancer cell lines were tested with the media conditions indicated: […]

Row | SMILES | pIC50 [1] | pIC50 [2]
1 | Nc1ccc(C(=O)N2CCC(Nc3ncc(C4CC4)c(-c4c[nH]c5ccccc45)n3)CC2)cc1 | < 6.00 | 
2 | CC(C)(CNC(=O)c1ccc(N)cc1)CNc1ncc(Cl)c(-c2c[nH]c3ccccc23)n1 | < 6.00 | < 5.30
3 | COc1ccc(Cn2c(-c3ccc(N)cc3)nc3cc(Nc4ncc(Cl)c(-c5c[nH]c6ccccc56)n4)ccc32)cc1 | 6.00 to 7.00 | 5.30 to 6.30
4 | CN(C)CCCC(=O)N(C)c1cccc(CN2CCC(Nc3ncc(Cl)c(-c4c[nH]c5ccccc45)n3)CC2)c1 | 6.00 to 7.00 | < 5.30
5 | CN(C)CCCC(=O)Nc1ccc(CN2CCC(Nc3ncc(Cl)c(-c4c[nH]c5ccccc45)n3)CC2)cc1 | 6.00 to 7.00 | 5.30 to 6.30
6 | Nc1ccc(C(=O)N2CCC(Nc3ncc(Cl)c(-c4c[nH]c5ncccc45)n3)CC2)cc1 | > 7.00 | 5.30 to 6.30
7 | Nc1ccc(-c2nc3ccc(Nc4ncc(Cl)c(-c5c[nH]c6ccccc56)n4)cc3o2)cc1 | < 6.00 | < 5.30
8 | Nc1ccc(C(=O)NCCCNc2ncc(Cl)c(-c3c[nH]c4ccccc34)n2)cc1 | 6.00 to 7.00 | 
9 | CN(C)C/C=C/C(=O)NCCCCC(=O)Nc1cccc(Nc2ncc(Cl)c(-c3c[nH]c4ccccc34)n2)c1 | > 7.00 | 5.30 to 6.30
10 | CN(C)C/C=C/C(=O)NCc1ccc(CN2CCC(Nc3ncc(Cl)c(-c4c[nH]c5ccccc45)n3)CC2)cc1 | > 7.00 | 5.30 to 6.30

Further lines, results first:

Row | pIC50 [1] | pIC50 [2] | SMILES
11 | > 7.00 | > 6.30 | Cc1cnc(NC2CCN(C(=O)c3ccc(N)cc3)CC2)nc1-c1c[nH]c2ccccc12
12 | > 7.00 | 5.30 to 6.30 | CN(C)CCCC(=O)Nc1cccc(Nc2ncc(Cl)c(-c3c[nH]c4ccccc34)n2)c1
13 | > 7.00 | > 6.30 | CN(C)C/C=C/C(=O)N(C)Cc1ccc(CN2CCC(Nc3ncc(Cl)c(-c4c[nH]c5ccccc45)n3)CC2)cc1
14 | > 7.00 | 5.30 to 6.30 | NCCCCC(=O)Nc1cccc(Nc2ncc(Cl)c(-c3c[nH]c4ccccc34)n2)c1
15 | > 7.00 | 5.30 to 6.30 | CN(C)C/C=C/C(=O)NCCC(=O)Nc1cccc(Nc2ncc(Cl)c(-c3c[nH]c4ccccc34)n2)c1 [Compound 131, (E)-N-(3-(3-(5-chloro-4-(1H-indol-3-yl)pyrimidin-2-ylamino)phenylamino)-3-oxopropyl)-4-(dimethylamino)but-2-enamide]
16 | > 7.00 | 5.30 to 6.30 | CN(C)C/C=C/C(=O)Nc1cccc(Nc2ncc(Cl)c(-c3c[nH]c4ccccc34)n2)c1

pIC50: −log10 of the molar value.
